According to patent US10660908B2, “Pharmaceutical spray composition comprising a vitamin D analogue and a corticosteroid” (LEO Pharma A/S, priority 2010, dated 2020):

Experiment: Solubility of vitamin D analogues and corticosteroids in different propellant mixtures (Example 7)
Settings: ambient temperature, mean of 2 determinations

solubility (DME 0 weight % of total propellant (butane only)): 3 μg/g propellant
solubility (DME 16 weight % of total propellant): 68 μg/g propellant
solubility (DME 53 weight % of total propellant): >1600 μg/g propellant
Compound: CCCC(=O)O[C@]1(C(=O)CO)CC[C@H]2[C@@H]3CCC4=CC(=O)CC[C@]4(C)[C@H]3[C@@H](O)C[C@@]21C [Hydrocortisone 17-butyrate, hydrocortisone 17-butyrate]
